Target: F-actin (rabbit skeletal α-actin, polymerized) (rabbit, UniProt P68135 1-377)
Assay: co-sedimentation; Coro7 FL with F-actin in the ADP-BeF3- state (F-actin pre-incubated 15 min with 2 mM BeSO4 and 10 mM NaF, KMEI buffer with the same); 4 °C, 1 h; 278,000×g, 30 min; SDS-PAGE densitometry
Settings: both partners purified

B1: human Coro7 full length (Coro7 FL) (natural protein)
chain: MNRFRVSKFRHTEARPPRRESWISDIRAGTAPSCRNHIKSSCSLIAFNSDRPGVLGIVPLQGQGEDKRRVAHLGCHSDLVTDLDFSPFDDFLLATGSADRTVKLWRLPGPGQALPSAPGVVLGPEDLPVEVLQFHPTSDGILVSAAGTTVKVWDAAKQQPLTELAAHGDLVQSAVWSRDGALVGTACKDKQLRIFDPRTKPRASQSTQAHENSRDSRLAWMGTWEHLVSTGFNQMREREVKLWDTRFFSSALASLTLDTSLGCLVPLLDPDSGLLVLAGKGERQLYCYEVVPQQPALSPVTQCVLESVLRGAALVPRQALAVMSCEVLRVLQLSDTAIVPIGYHVPRKAVEFHEDLFPDTAGCVPATDPHSWWAGDNQQVQKVSLNPACRPHPSFTSCLVPPAEPLPDTAQPAVMETPVGDADASEGFSSPPSSLTSPSTPSSLGPSLSSTSGIGTSPSLRSLQSLLGPSSKFRHAQGTVLHRDSHITNLKGLNLTTPGESDGFCANKLRVAVPLLSSGGQVAVLELRKPGRLPDTALPTLQNGAAVTDLAWDPFDPHRLAVAGEDARIRLWRVPAEGLEEVLTTPETVLTGHTEKICSLRFHPLAANVLASSSYDLTVRIWDLQAGADRLKLQGHQDQIFSLAWSPDGQQLATVCKDGRVRVYRPRSGPEPLQEGPGPKGGRGARIVWVCDGRCLLVSGFDSQSERQLLLYEAEALAGGPLAVLGLDVAPSTLLPSYDPDTGLVLLTGKGDTRVFLYELLPESPFFLECNSFTSPDPHKGLVLLPKTECDVREVELMRCLRLRQSSLEPVAFRLPRVRKEFFQDDVFPDTAVIWEPVLSAEAWLQGANGQPWLLSLQPPDMSPVSQAPREAPARRAPSSAQYLEEKSDQQKKEELLNAMVAKLGNREDPLPQDSFEGVDEDEWD
notes: human Coro7 (coronin 7), full length: β1, β2 and CA domains; Made as an MBP fusion with a TEV site; the methods tell no cleavage of MBP for this construct; source: human Expi293F cells, purified (amylose, MonoQ)
fold higher affinity for F-actin in the ADP state than in the ADP-BeF3- state: ~3.5 fold

Source: PMC12592476, “Mechanism of Arp2/3 complex branch disassembly by human Coro7” (Nature Communications, 2025)
